Target: human ERβ (Homo sapiens, UniProt Q92731)
Experiment: IL-1β induction of NFκB driven luciferase reporter in HepG2 cells transfected with ERβ
Assay type: cell-based
Details: HepG2, 10 nM 17β-estradiol, 100 U/ml IL-1β 6 hours, p<0.01; less efficacious than ERα

Sequences of proteins named here, by UniProt entry; tags and fusion partners are left off.
UniProt Q92731, whole entry: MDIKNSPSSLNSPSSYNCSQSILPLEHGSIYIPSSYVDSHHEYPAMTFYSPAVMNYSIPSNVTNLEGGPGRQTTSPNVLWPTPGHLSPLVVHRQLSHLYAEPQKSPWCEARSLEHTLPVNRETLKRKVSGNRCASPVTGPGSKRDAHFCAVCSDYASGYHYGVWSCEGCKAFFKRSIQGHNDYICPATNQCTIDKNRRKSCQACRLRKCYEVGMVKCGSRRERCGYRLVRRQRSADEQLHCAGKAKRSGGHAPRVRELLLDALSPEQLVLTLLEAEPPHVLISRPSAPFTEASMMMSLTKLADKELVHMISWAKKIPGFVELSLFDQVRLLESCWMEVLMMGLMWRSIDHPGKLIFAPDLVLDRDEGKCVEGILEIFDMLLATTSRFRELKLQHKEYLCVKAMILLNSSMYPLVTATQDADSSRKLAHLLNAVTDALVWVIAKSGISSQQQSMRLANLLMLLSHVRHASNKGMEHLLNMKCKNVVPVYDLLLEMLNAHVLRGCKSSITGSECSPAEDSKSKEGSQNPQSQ

SMILES: C[C@]12CC[C@@H]3c4ccc(O)cc4CC[C@H]3[C@@H]1CC[C@@H]2O [E2, 17β-estradiol]
- IL-1β induction of luciferase activity (NFκB reporter), ERβ: significantly repressed
